For this assay, the target named is SARS-CoV-2 PLpro (Severe acute respiratory syndrome coronavirus 2, UniProt P0DTD1). As to conditions: for IC50: read-out: Enzyme inhibition IC50.

As a reminder, the IC50 is the concentration needed to halve the response being measured. As for `Cc1ccc(N)cc1C(=O)N[C@H](C)c1cccc(-c2ccc(CNC3CCCC3)s2)c1` [Compound 53, (R)-5-Amino-N-(1-(3-(5-((cyclopentylamino)methyl)thiophen-2-yl)phenyl)ethyl)-2-methylbenzamide], the IC50 worked out at 1390 nM.
Consider `Cc1ccc(NC2CNC2)cc1C(=O)N[C@H](C)c1cccc(-c2cc(C)c(CN3CCCC3)s2)c1` [Compound 15, (R)-5-(Azetidin-3-ylamino)-2-methyl-N-(1-(3-(4-methyl-5-(pyrrolidin-1-ylmethyl)thiophen-2-yl)phenyl)ethyl)benzamide], for which the IC50 worked out at 920 nM.
As to `Cc1ccc(NC2CNC2)cc1C(=O)N[C@H](C)c1cccc(-c2ccc(CNC(=O)C3CC3)s2)c1` [Compound 31, (R)-5-(Azetidin-3-ylamino)-N-(1-(3-(5-(cyclopropanecarboxamidomethyl)thiophen-2-yl)phenyl)ethyl)-2-methylbenzamide], the IC50 is 790 nM.
`Cc1ccc(NC2CNC2)cc1C(=O)N[C@H](C)c1cccc(-c2ccc(Cl)s2)c1` [Compound 29, (R)-5-(Azetidin-3-ylamino)-N-(1-(3-(5-chlorothiophen-2-yl)phenyl)ethyl)-2-methylbenzamide]: the IC50 is 1080 nM.
The same measure, in the same setting: with `Cc1ccc(NC2CNC2)cc1C(=O)N[C@H](C)c1cccc(-c2ccc(CNC(=O)C3CCNCC3)s2)c1` [Compound 35, (R)-N-((5-(3-(1-(5-(Azetidin-3-ylamino)-2-methylbenzamido)ethyl)phenyl)thiophen-2-yl)methyl)piperidine-4-carboxamide] the figure was 2400 nM; with `CC(=O)OC(C)OC(=O)N1CC(Nc2ccc(C)c(C(=O)N[C@H](C)c3cccc(-c4ccc(CNC(=O)C5CCCC5)s4)c3)c2)C1` (stereo partly drawn) [Compound 62, 1-Acetoxyethyl 3-((3-(((R)-1-(3-(5-(cyclopentanecarboxamidomethyl)thiophen-2-yl)phenyl)ethyl)carbamoyl)-4-methylphenyl)amino)azetidine-1-carboxylate], 600 nM.
Consider `Cc1ccc(NC2CNC2)cc1C(=O)N[C@H](C)c1cccc(-c2cc3sccc3s2)c1` [Compound 30, (R)-5-(Azetidin-3-ylamino)-2-methyl-N-(1-(3-(thieno[3,2-b]thiophen-2-yl)phenyl)ethyl)benzamide], for which the IC50 came out at 820 nM.
Regarding `Cc1ccc(NC2CNC2)cc1C(=O)N[C@H](C)c1cccc(-c2ccc(CN[C@H]3CC[C@@H](C(=O)OC[C@H]4O[C@@H](n5ccc(NO)nc5=O)[C@H](O)[C@@H]4O)C3)s2)c1` [Compound 64, ((3S,4R,5R)-3,4-Dihydroxy-5-(4-(hydroxyamino)-2-oxopyrimidin-1(2H)-yl)tetrahydrofuran-2-yl)methyl (1R,3S)-3-(((5-(3-((R)-1-(5-(azetidin-3-ylamino)-2-methylbenzamido)ethyl)phenyl)thiophen-2-yl)methyl)amino)cyclopentane-1-carboxylate], the “potency for PLpro inhibition” value is “submicromolar potency” and the half-maximal inhibitory concentration (IC50) was 620 nM.
For `Cc1ccc(NC2CNC2)cc1C(=O)N[C@H](C)c1cccc(-c2cccn2C)c1` [Compound 59, (R)-5-(Azetidin-3-ylamino)-2-methyl-N-(1-(3-(1-methyl-1H-pyrrol-2-yl)phenyl)ethyl)benzamide], the IC50 was 9780 nM.
Regarding `Cc1ccc(N)cc1C(=O)N[C@H](C)c1cccc(-c2ccc(CN[C@H]3CC[C@@H](O)C3)s2)c1` [Compound 55, 5-Amino-N-((R)-1-(3-(5-((((1S,3R)-3-hydroxycyclopentyl)amino)methyl)thiophen-2-yl)phenyl)ethyl)-2-methylbenzamide], the IC50 turned out to be 600 nM.
The same measure, in the same setting: with `Cc1ccc(OC2CCNC2)cc1C(=O)N[C@H](C)c1cccc(-c2ccc(CN3CCCC3)s2)c1` (stereo partly drawn) [Compound 49, 2-Methyl-N-((R)-1-(3-(5-(pyrrolidin-1-ylmethyl)thiophen-2-yl)phenyl)ethyl)-5-(pyrrolidin-3-yloxy)benzamide] the figure was 1200 nM; with `Cc1ccc(NC2CNC2)cc1C(=O)N[C@H](C)c1cccc(-c2ccc(CNC(=O)[C@@H]3CCCN3)s2)c1` [Compound 38, (S)-N-((5-(3-((R)-1-(5-(Azetidin-3-ylamino)-2-methylbenzamido)ethyl)phenyl)thiophen-2-yl)methyl)pyrrolidine-2-carboxamide], 550 nM.
Same read-out and setting: then `Cc1ccc(OC2CNC2)cc1C(=O)N[C@H](C)c1cccc(-c2ccc(CNC3CCCC3)o2)c1` [Compound 56, (R)-5-(Azetidin-3-yloxy)-N-(1-(3-(5-((cyclopentylamino)methyl)furan-2-yl)phenyl)ethyl)-2-methylbenzamide], with 2820 nM; and `Cc1ccc(NC2CNC2)cc1C(=O)N[C@H](C)c1cccc(-c2ccc(CNC(=O)C3CNC3)s2)c1` [Compound 36, (R)-N-((5-(3-(1-(5-(Azetidin-3-ylamino)-2-methylbenzamido)ethyl)phenyl)thiophen-2-yl)methyl)azetidine-3-carboxamide], with 1140 nM.
`Cc1ccc(NC2CNC2)cc1C(=O)N[C@H](C)c1cccc(-c2ccc(-c3cccs3)s2)c1` [Compound 27, (R)-N-(1-(3-([2,2′-Bithiophen]-5-yl)phenyl)ethyl)-5-(azetidin-3-ylamino)-2-methylbenzamide]: the IC50 is 4430 nM.
Take `Cc1ccc(NC2CNC2)cc1C(=O)N[C@H](C)c1cccc(-c2sc(CN3CCCC3)cc2C)c1` [Compound 20, (R)-5-(Azetidin-3-ylamino)-2-methyl-N-(1-(3-(3-methyl-5-(pyrrolidin-1-ylmethyl)thiophen-2-yl)phenyl)ethyl)benzamide]: the IC50 was 3170 nM.
On to `Cc1ccc(NC2CNC2)cc1C(=O)N[C@H](C)c1cccc(-c2ccc(C(F)(F)F)s2)c1` [Compound 28, (R)-5-(Azetidin-3-ylamino)-2-methyl-N-(1-(3-(5-(trifluoromethyl)thiophen-2-yl)phenyl)ethyl)benzamide], for which the IC50 came out at 6120 nM.
For `Cc1ccc(NC2CNC2)cc1C(=O)N[C@H](C)c1cccc(-c2ccc(CNC(=O)C3CCC(N)C3)s2)c1` (stereo partly drawn) [Compound 37, N-((1R)-1-(3-(5-((3-Aminocyclopentane-1-carboxamido)methyl)thiophen-2-yl)phenyl)ethyl)-5-(azetidin-3-ylamino)-2-methylbenzamide], the IC50 amounted to 960 nM.
`Cc1ccc(NC2CNC2)cc1C(=O)N[C@H](C)c1cccc(-c2sc(CN[C@H]3CC[C@@H](O)C3)cc2C)c1` [Compound 18, 5-(Azetidin-3-ylamino)-N-((R)-1-(3-(5-((((1S,3R)-3-hydroxycyclopentyl)amino)methyl)-3-methylthiophen-2-yl)phenyl)ethyl)-2-methylbenzamide]: the IC50 stood at 1480 nM.
Take `Cc1ccc(NC2CNC2)cc1C(=O)N[C@H](C)c1cccc(-c2ccc(-c3ccccc3)s2)c1` [Compound 26, (R)-5-(Azetidin-3-ylamino)-2-methyl-N-(1-(3-(5-phenylthiophen-2-yl)phenyl)ethyl)benzamide]: the IC50 came to 4750 nM.
Turning to `Cc1ccc(OCCN)cc1C(=O)N[C@H](C)c1cccc(-c2ccc(CNC3CCCC3)s2)c1` [Compound 47, (R)-5-(2-Aminoethoxy)-N-(1-(3-(5-((cyclopentylamino)methyl)thiophen-2-yl)phenyl)ethyl)-2-methylbenzamide], the IC50 came to 260 nM.
`Cc1ccc(NC2CNC2)cc1C(=O)N[C@H](C)c1cccc(-c2ccc(CNC(=O)C3CCCC3)s2)c1` [Compound 32, (R)-5-(Azetidin-3-ylamino)-N-(1-(3-(5-(cyclopentanecarboxamidomethyl)thiophen-2-yl)phenyl)ethyl)-2-methylbenzamide]: the IC50 worked out at 380 nM.
With `Cc1ccc(NC2CNC2)cc1C(=O)N[C@H](C)c1cccc(-c2cc3ccccc3s2)c1` [Compound 22, (R)-5-(Azetidin-3-ylamino)-N-(1-(3-(benzo[b]thiophen-2-yl)phenyl)ethyl)-2-methylbenzamide], the IC50 was found to be 1130 nM.
As for `Cc1csc(-c2cccc([C@@H](C)NC(=O)c3cc(NC4CNC4)ccc3C)c2)c1` [Compound 24, (R)-5-(Azetidin-3-ylamino)-2-methyl-N-(1-(3-(4-methylthiophen-2-yl)phenyl)ethyl)benzamide], the IC50 is 1930 nM.
`CCOC(=O)[C@@H]1CC[C@H](NCc2ccc(-c3cccc([C@@H](C)NC(=O)c4cc(NC5CNC5)ccc4C)c3)s2)C1` [Compound 40, Ethyl (1R,3S)-3-(((5-(3-((R)-1-(5-(Azetidin-3-ylamino)-2-methylbenzamido)ethyl)phenyl) Thiophen-2-yl)methyl)amino)cyclopentane-1-carboxylate]: the half-inhibitory concentration (IC50) worked out at 490 nM.
In the case of `CC(=O)Nc1ccc(C)c(C(=O)N[C@H](C)c2cccc(-c3ccc(CNC4CCCC4)s3)c2)c1` [Compound 50, (R)-5-Acetamido-N-(1-(3-(5-((cyclopentylamino)methyl)thiophen-2-yl)phenyl)ethyl)-2-methylbenzamide], the IC50 was found to be 1790 nM.
`Cc1ccc(NC2CNC2)cc1C(=O)N[C@H](C)c1cccc(-c2sccc2C)c1` [Compound 25, (R)-5-(Azetidin-3-ylamino)-2-methyl-N-(1-(3-(3-methylthiophen-2-yl)phenyl)ethyl)benzamide]: the IC50 was 1190 nM.
On to `Cc1ccc(OC2CNC2)cc1C(=O)N[C@H](C)c1cccc(-c2ccc(CN[C@H]3CC[C@@H](C(=O)OC[C@H]4O[C@@H](n5ccc(N)nc5=O)[C@H](O)[C@@H]4O)C3)s2)c1` [Compound 63, ((2R,3S,4R,5R)-5-(4-Amino-2-oxopyrimidin-1(2H)-yl)-3,4-dihydroxytetrahydrofuran-2-yl)methyl (1R,3S)-3-(((5-(3-((R)-1-(5-(azetidin-3-yloxy)-2-methylbenzamido)ethyl)phenyl) Thiophen-2-yl)methyl)amino)cyclopentane-1-carboxylate], for which the “potency for PLpro inhibition” value is recorded as “submicromolar potency” and the IC50 came out at 470 nM.
In the case of `Cc1ccc(OCCN)cc1C(=O)N[C@H](C)c1cccc(-c2ccc(CN3CCCC3)s2)c1` [Compound 48, (R)-5-(2-Aminoethoxy)-2-methyl-N-(1-(3-(5-(pyrrolidin-1-ylmethyl)thiophen-2-yl)phenyl)ethyl)benzamide], the IC50 came out at 570 nM.
On to `Cc1ccc(NC2CNC2)cc1C(=O)N[C@H](C)c1cccc(-c2ccc(CNC(=O)C3CCCO3)s2)c1` (stereo partly drawn) [Compound 34, N-((5-(3-((R)-1-(5-(Azetidin-3-ylamino)-2-methylbenzamido)ethyl)phenyl)thiophen-2-yl)methyl)tetrahydrofuran-2-carboxamide], for which the IC50 amounted to 690 nM.

These data come from PMC11345844, “Non-Covalent Inhibitors of SARS-CoV-2 Papain-Like Protease (PLpro): In Vitro and In Vivo Antiviral Activity” (Journal of Medicinal Chemistry, 2024).
